In patent US20110105554A1, “MEANS FOR TREATING MYOSIN-RELATED DISEASES” (KINARIS BIOMEDICALS GMBH, priority 2007, published 2011):
pIC50: −log10 of the molar value.

Amino acid sequences for entries named in this document (tags omitted).
UniProt P08799, whole entry S249N/C312Y: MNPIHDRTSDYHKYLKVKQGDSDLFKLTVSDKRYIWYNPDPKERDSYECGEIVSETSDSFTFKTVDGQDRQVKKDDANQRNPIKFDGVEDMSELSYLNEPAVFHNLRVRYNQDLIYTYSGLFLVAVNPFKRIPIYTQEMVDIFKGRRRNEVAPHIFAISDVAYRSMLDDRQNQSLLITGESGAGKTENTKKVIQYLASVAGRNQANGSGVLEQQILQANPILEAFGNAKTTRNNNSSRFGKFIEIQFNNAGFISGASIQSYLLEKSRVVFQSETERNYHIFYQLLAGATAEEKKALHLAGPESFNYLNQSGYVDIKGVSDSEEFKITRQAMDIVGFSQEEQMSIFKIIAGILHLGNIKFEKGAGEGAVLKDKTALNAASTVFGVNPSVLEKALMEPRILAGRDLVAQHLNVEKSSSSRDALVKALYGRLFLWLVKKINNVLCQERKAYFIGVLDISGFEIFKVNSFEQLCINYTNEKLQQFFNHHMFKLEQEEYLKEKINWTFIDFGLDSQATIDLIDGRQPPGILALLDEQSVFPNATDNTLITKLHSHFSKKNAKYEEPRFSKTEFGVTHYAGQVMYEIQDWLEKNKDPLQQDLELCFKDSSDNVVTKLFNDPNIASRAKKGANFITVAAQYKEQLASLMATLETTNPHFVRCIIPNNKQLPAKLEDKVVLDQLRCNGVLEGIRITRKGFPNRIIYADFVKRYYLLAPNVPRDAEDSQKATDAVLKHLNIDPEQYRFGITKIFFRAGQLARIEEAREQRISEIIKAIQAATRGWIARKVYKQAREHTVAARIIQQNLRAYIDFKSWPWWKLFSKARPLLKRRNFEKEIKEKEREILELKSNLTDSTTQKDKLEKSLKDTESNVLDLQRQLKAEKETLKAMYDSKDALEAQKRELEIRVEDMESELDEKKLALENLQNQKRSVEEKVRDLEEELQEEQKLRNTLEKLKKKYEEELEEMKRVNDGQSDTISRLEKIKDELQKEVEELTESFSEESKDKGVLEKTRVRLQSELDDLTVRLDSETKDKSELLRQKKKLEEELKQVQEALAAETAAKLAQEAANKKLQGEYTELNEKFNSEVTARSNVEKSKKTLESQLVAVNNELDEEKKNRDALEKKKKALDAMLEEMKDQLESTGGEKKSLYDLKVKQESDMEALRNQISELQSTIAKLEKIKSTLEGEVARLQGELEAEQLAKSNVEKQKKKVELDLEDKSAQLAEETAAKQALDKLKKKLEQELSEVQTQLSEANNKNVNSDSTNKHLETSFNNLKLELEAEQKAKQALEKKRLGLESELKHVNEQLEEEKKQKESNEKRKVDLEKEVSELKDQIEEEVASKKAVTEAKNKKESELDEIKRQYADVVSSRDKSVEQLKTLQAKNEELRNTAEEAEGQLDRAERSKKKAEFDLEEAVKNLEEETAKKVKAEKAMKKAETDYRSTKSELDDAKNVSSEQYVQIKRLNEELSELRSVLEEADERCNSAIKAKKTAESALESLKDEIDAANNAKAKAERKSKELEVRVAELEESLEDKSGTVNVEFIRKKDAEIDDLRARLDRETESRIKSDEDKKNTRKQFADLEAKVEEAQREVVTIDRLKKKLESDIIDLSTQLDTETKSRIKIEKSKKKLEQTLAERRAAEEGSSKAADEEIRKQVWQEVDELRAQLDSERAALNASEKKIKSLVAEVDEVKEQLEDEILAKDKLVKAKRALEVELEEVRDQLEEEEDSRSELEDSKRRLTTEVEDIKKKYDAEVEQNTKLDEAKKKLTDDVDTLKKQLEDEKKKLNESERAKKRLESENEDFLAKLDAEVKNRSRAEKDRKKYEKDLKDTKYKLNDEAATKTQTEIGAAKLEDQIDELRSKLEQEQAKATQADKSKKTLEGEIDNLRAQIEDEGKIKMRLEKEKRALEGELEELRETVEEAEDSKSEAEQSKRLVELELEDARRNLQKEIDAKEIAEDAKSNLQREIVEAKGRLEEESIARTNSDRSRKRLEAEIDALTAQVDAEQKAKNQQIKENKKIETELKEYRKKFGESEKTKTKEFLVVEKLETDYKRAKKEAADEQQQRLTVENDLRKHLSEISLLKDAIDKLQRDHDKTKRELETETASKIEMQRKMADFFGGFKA

Key:
myosin-2 = myosin-2 (Dictyostelium discoideum, UniProt P08799, C312Y/S249N); experiment: Basal ATPase activity of myosin-2 (FIG. 19c); assay type: biochemical
Method: (c) KIN-77 inhibits the basal ATPase activity of myosin-2 approximately 3-fold with IC50=5.3 μM.
Steady-state kinetics. Basal and actin-activated Mg^2+-ATPase activities were measured with the NADH-coupled assay^19 in a buffer containing 25 mM HEPES, 25 mM KCl, and 4 mM MgCl2, 0.5 mM DTT at pH 7.0 in the presence of 1 mM ATP at 25° C. PBP was added to the reaction mixture in the absence of nucleotide and incubated for 20 minutes before the reaction was started by the addition of ATP. NADH oxidation was followed using the change in absorption at 340 nm in a Beckman DU-800 spectrophotometer.

For Oc1c(Br)cc(Br)cc1-c1[nH]c2cc(Br)c(Br)cc2c1Br, the “fold inhibition of basal ATPase activity” value (myosin-2) was “approximately 3 fold”, the pIC50 (myosin-2; read-out: IC50, basal ATPase activity) was 5.28 and the AC50 (rabbit myosin-2) was 19.2 µM. The pIC50 (rabbit myosin-2) was 4.02.
